{"sequences": {"note": "Sequences of proteins named here, by UniProt entry; tags and fusion partners are left off.", "UniProt P33535, whole entry": "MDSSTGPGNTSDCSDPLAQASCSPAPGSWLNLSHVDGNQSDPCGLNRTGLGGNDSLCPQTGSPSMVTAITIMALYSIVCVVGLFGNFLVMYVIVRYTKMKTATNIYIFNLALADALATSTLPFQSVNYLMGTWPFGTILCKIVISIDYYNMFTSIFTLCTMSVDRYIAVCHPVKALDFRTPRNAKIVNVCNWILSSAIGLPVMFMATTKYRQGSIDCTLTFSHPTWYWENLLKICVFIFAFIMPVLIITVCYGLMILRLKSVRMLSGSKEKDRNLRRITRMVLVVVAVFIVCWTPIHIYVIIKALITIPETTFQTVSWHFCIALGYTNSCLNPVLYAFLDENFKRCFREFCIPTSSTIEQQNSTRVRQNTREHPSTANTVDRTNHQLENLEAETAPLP"}, "source": "ChEMBL document CHEMBL1135665", "about": "“Synthesis and biological evaluation of 14-alkoxymorphinans. 17. Highly delta opioid receptor selective 14-alkoxy-substituted indolo- and benzofuromorphinans” (J Med Chem, 2002)", "target": "Mu-type opioid receptor (Rattus norvegicus, UniProt P33535)", "assay": "Binding affinity at mu opioid receptor 1 in rat brain membrane by [3H]DAMGO displacement.", "assay_type": "cell membranes"}
{"smiles": "Oc1ccc2c3c1O[C@H]1c4[nH]c5ccccc5c4C[C@@]4(O)[C@@H](C2)N(CC2CC2)CC[C@]314", "note": "[NALTRINDOLE]", "values": [{"measurement": "Ki", "result": 0.013, "unit": "µM"}]}
